## Yeast mating assay 1: variants of the scFv Ab-14

Values reported by Engelhart et al. 2022, doi:10.1038/s41597-022-01779-4 (FLAb copy).

The target is the same throughout: PDVDLGDISGINAS, from the HR2 region of SARS-CoV-2 spike.

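Phage display of a naive human antibody library on the peptide gave the parent. Library AAYL49 holds single substitutions and randomly drawn double and triple substitutions in the CDRs. The scFvs were displayed on barcoded MATa yeast, the peptide on MATalpha yeast. Pairs that bind mate more often; barcode pairs of the diploids are counted by sequencing. The ratio of observed to expected reads was calibrated, replicate by replicate, on BCL2-family standards whose Kd was known from biolayer interferometry. Mating was done three times.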

Ab-14 is the parent antibody, in scFv form: VH, then three GGGGS repeats, then VL. The light chain is unchanged in all variants.
VH: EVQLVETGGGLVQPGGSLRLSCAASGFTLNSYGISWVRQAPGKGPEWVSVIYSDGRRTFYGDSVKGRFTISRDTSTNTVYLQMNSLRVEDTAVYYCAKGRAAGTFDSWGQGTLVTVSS
VL: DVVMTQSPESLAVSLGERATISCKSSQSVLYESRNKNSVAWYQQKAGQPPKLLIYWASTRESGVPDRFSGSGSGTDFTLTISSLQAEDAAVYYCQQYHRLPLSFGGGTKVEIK

Variants are written as CDR1, CDR2 and CDR3 of the heavy chain (limits as in the source). Parent: GFTLNSYGIS, VIYSDGRRTFYGDSVK, GRAAGTFDS. All variants listed here change A102 of the VH, counted from its first residue. Each Kd is an estimate from the mating assay, the geometric mean of the replicates in which the pair was seen; lower is stronger. A pair that was not seen in any replicate is written "no signal"; this usually means weak binding, but a binder can also be missed.

The variant GFTLNSYSIS / VIYSDGRRTFYGDSVK / GRAHGTFDS showed no signal (0 of 3 replicates). The variant GFTLNSYGIG / VIYSDGRRTFYGDSVP / GRALGTFDS gave no signal (0 of 3 replicates). For GFTLNSYGIL / VIYSDGRRTFYGDSVK / GRAYGTFDS, the assay gave 4.2 µM (1 of 3 replicates). The variant GFTLNSSGIS / GIYSDGRRTFYGDSVK / GRAKGTFDS showed 6.6 µM (2 of 3 replicates). The variant TFTLNSYGIS / VIYSDGRRTFYGHSVK / GRARGTFDS showed no signal (0 of 3 replicates). With GFTLNSYGIS / VIYSDGRRTFYGDSVK / GRAFGTFDS the result was 120 µM (1 of 3 replicates). The variant GFTGNSYYIS / VIYSDGRRTFYGDSVK / GRADGTFDS showed no signal (0 of 3 replicates).

The variant VFTLNSYGIS / VIYSDGRRTFYGISVK / GRAEGTFDS gave no signal (0 of 3 replicates). The variant GTTLNSYGIS / VIYSDGRRTFYGDSVK / GRALGTFDS gave no signal (0 of 3 replicates). The variant GFTLNSYGIS / VIYSDGRRTFYGDSVK / GMAEGHFDS showed no signal (0 of 3 replicates). With GFTLNSYGIS / VIYSDGRRTFEGDSVK / GRAQGCFDS the result was no signal (0 of 3 replicates). With GFTLNSRGIS / VIYSDGRRTFYGDSVK / GAANGTFDS the result was 2.7 µM (1 of 3 replicates). The variant GITLNSYGIS / VIYSDGRRTFYGDAVK / GRALGTFDS gave no signal (0 of 3 replicates). With GFTENSYGIS / VIYSDGRRTFYGDSVK / GRAHGTFDS the result was 1.2 µM (2 of 3 replicates).

With GFTLVSYGIS / PIYSDGRRTFYGDSVK / GRALGTFDS the result was no signal (0 of 3 replicates). The variant GFTLNSYGIG / VIYSDGRRTFYGDSVK / GRANSTFDS gave no signal (0 of 3 replicates). The variant GFTLNSYGIS / VIYSDGRRTDSGDSVK / GRAEGTFDS showed 8.7 µM (3 of 3 replicates). With GFTLNSYGES / VIYSDGRRTFYGDSVK / GRAWGTFDS the result was no signal (0 of 3 replicates). The variant GFTLNSEGIR / VIYSDGRRTFYGDSVK / GRAVGTFDS showed 5.5 µM (1 of 3 replicates). The variant GFTLNKYGIS / VIYSDGRRTFYGDSVK / LRANGTFDS gave no signal (0 of 3 replicates). With GFTLNSYTIS / VIYSDGRRTFYGDSVK / GRAWGTFDM the result was no signal (0 of 3 replicates).

The variant GFTLNSYGIS / VIYSDGRRTFYGVSVK / GRAQGTFDS showed 3.1 µM (1 of 3 replicates). With GFTLNSYGIS / VIYSDGRRTFYGDSVK / GGAHGTFRS the result was 5.8 nM (3 of 3 replicates). With GFTLNSYGIS / VIYSDGRRTFYGDSVR / ARAYGTFDS the result was no signal (0 of 3 replicates). With GFTLNSYGIS / VIYSDGRRTFYGDSVK / FRAKGPFDS the result was 14 µM (1 of 3 replicates). The variant GFTEESYGIS / VIYSDGRRTFYGDSVK / GRALGTFDS gave no signal (0 of 3 replicates). With GFTLNSYGIS / VIYSDDRRTFYGDSVK / GRATGTFDS the result was 190 nM (1 of 3 replicates). The variant GFTLNSYGIS / VIYSDGRRTFVGDSVK / GRAEGTFDS showed 130 nM (3 of 3 replicates).

For GFTLNSYGIS / VIYSDGRRRFPGDSVK / GRAEGTFDS, the assay gave no signal (0 of 3 replicates). The variant GFTLNSYGIS / VIYQDGRRTFYGDSVK / GNAGGTFDS showed 6.5 µM (1 of 3 replicates). The variant RFTLNSYGIS / VIYSDWRRTFYGDSVK / GRADGTFDS showed no signal (0 of 3 replicates). With GFTLNSYGHS / VIYSDTRRTFYGDSVK / GRAQGTFDS the result was no signal (0 of 3 replicates). For GFTLNSYAIS / VIYSDGRRTFYGDSSK / GRAHGTFDS, the assay gave no signal (0 of 3 replicates). The variant QFTLNSYGIS / VIYSDGRRTFYGDSHK / GRAHGTFDS showed no signal (0 of 3 replicates). The variant GFTLNRYGIS / VIYSDGRRTFYGDSVK / GRATGTFDK gave 54 nM (3 of 3 replicates).

With GFTLNTYGSS / VIYSDGRRTFYGDSVK / GRAQGTFDS the result was no signal (0 of 3 replicates). The variant GFTLNSYGIS / VIYSDGRLTFCGDSVK / GRAMGTFDS showed 28 µM (2 of 3 replicates). For GFPLNSYGIS / VIYSDGRRTFYGDSVK / GRAVGLFDS, the assay gave 65 µM (3 of 3 replicates). For GFTLNCYGIS / VIGSDGRRTFYGDSVK / GRASGTFDS, the assay gave 1.0 µM (1 of 3 replicates). With GFTLNFYGIS / VIYSDGRREFYGDSVK / GRAWGTFDS the result was 10 µM (1 of 3 replicates). The variant GFTLNSYGIS / VIYSDSRRTFYGDSVK / VRALGTFDS gave 7.9 µM (1 of 3 replicates). With GFTLNSYGIS / VIYSDGNRTFYGDSVK / GRAGGTFES the result was 730 µM (2 of 3 replicates).

The variant GFTLNSYGIS / VIYSDGERTFYGDSFK / GRAGGTFDS showed 160 nM (3 of 3 replicates).

For reference, 5 entries of the list once more:

The variant VFTLNSYGIS / VIYSDGRRTFYGISVK / GRAEGTFDS gave no signal (0 of 3 replicates).
The variant GFTLNSYGIS / VIYQDGRRTFYGDSVK / GNAGGTFDS gave 6.5 µM (1 of 3 replicates).
The variant GFTLNSYGIS / VIYSDGRRRFPGDSVK / GRAEGTFDS gave no signal (0 of 3 replicates).
The variant GFTLVSYGIS / PIYSDGRRTFYGDSVK / GRALGTFDS gave no signal (0 of 3 replicates).
The variant GFTLNFYGIS / VIYSDGRREFYGDSVK / GRAWGTFDS gave 10 µM (1 of 3 replicates).

Background: pairings of library AAYL49 with three empty control strains gave a value in 15% of cases (median 11 µM, 5th percentile 680 nM). Values in that range, when seen in few replicates, are hard to tell from nonspecific mating.